# Values of other authors as cited in patent US9522128B2 (FUNDACION PARA LA INVESTIGACION BIOMEDICA DEL HOSPITAL …, priority 2008, dated 2016).
# Conditions: 7 or close to 7; cited from earlier work
substance,measurement,value
Cyclosporin A,"nature (neutral, anionic, apolar) at physiological pH",apolar
